{
  "source": "patent US8003669B2",
  "about": "“Remedy for sleep disturbance” (Mitsubishi Tanabe Pharma Corporation, priority 2002, dated 2011)",
  "molecular_target": "ORL-1 receptor (Rattus norvegicus, UniProt P35370)",
  "assay": "ORL-1 receptor binding test ([3H]-nociceptin)",
  "details": "receptor prepared from cerebral cortex of rat",
  "data": [
    {"smiles": "CNC(=O)Cn1c(=O)n(C2CCN([C@@H]3Cc4cccc5cccc3c45)CC2)c2ccccc21", "values": [
      {"measurement": "IC50", "setting": "read-out: IC50 value, inhibition of the binding of [3H]-nociceptin, 25° C., 20 minutes", "result": 4.4, "unit": "nM"},
      {"measurement": "Ki", "setting": "read-out: Ki value, inhibition of the binding of [3H]-nociceptin, Ki=IC50/(1+L/Kd)", "result": 0.51, "unit": "nM"}
    ]}
  ]
}
